Data reported in ChEMBL document CHEMBL1811917 (J Med Chem, 2011).

Molecular target: T1, Arginase (Plasmodium falciparum, UniProt Q8I384)
T1 sequence (Q8I384 whole entry): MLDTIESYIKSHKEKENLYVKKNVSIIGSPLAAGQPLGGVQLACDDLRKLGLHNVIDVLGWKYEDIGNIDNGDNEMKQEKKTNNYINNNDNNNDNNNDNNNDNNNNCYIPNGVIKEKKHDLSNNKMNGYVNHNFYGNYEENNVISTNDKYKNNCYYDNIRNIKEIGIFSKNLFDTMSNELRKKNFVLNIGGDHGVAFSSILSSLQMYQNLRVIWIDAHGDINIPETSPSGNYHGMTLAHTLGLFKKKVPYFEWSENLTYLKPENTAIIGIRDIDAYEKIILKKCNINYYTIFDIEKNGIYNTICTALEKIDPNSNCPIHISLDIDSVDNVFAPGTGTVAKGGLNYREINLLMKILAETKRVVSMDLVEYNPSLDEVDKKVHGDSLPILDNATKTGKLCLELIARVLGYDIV
Test: Inhibition of Plasmodium falciparum arginase using L-arginine as substrate by colorimetric assay

For `NC(CCCCB(O)O)(C(=O)O)C(F)F` (racemic), the Ki was 2000 µM.
